In patent US9744150B2, “Suspension containing micronized benzoyl peroxide” (Dow Pharmaceutical Sciences Inc., priority 2009, dated 2017):

Assay: surface tension by Du Noüy ring method, Krüss K20 EasyDyne tensiometer
Type: physicochemical
Conditions: room temperature
Protocol: As used herein, the term “surface tension” refers to the force required to increase the unit area of a surface of a liquid or of an interface between two liquids or between a liquid and a gas, generally stated in units of dynes/cm. Surface tensions described herein are measured by the Du Noüy ring method utilizing an EasyDyne tensiometer model K20 marketed by Krüss USA, Matthews, N.C.
Surface tension of a fluid containing water was determined prior to and after mixing with various concentrations of various water soluble organic solvents in water. The water soluble organic solvents tested were: propylene glycol (Spectrum Chemicals, Gardena, Calif.), ethanol (Alfa Aesar, Ward Hill, Mass.), hexylene glycol (Ruger Chemicals, Linden, N.J.), ethoxydiglycol (Gattefossé USA, Paramus, N.J.), polyethylene glycol 400 (PEG 400) (Croda USA, Edison, N.J.), dimethyl isosorbide (DMI) (Croda, USA, Edison, N.J.) and glycerin (Spectrum Chemicals, Gardena, Calif.) as well as polyethylene glycol 200 NF (PEG 200) (Alfa Aesar, Ward Hill, Mass.), propylene carbonate (Spectrum Chemicals, Gardena Calif.), isopropyl alcohol (Spectrum Chemicals, Gardena Calif.), 1,3-propanediol (Spectrum Chemicals, Gardena Calif.) and polypropylene glycol (PPG-9) (Spectrum Chemicals, Gardena Calif.). The study was performed at room temperature utilizing a Kruss Surface Tensiometer, Model K20 EasyDyne (Kruss USA, Matthews, N.C.) and the results are shown in Table 4. Values for surface tension are in dynes/cm.

hexylene glycol [Hexylene Glycol NF]
Surface tension (1.0 % w/w solvent in water): 60.1 dynes/cm | Surface tension (2.5 % w/w solvent in water): 54.2 dynes/cm | Surface tension (5 % w/w solvent in water): 48.9 dynes/cm | Surface tension (7.5 % w/w solvent in water): 45.5 dynes/cm | Surface tension (10 % w/w solvent in water): 43.0 dynes/cm | Surface tension (12.5 % w/w solvent in water): 41.1 dynes/cm | Surface tension (15.0 % w/w solvent in water): 39.4 dynes/cm | Surface tension (17.5 % w/w solvent in water): 37.8 dynes/cm | Surface tension (20 % w/w solvent in water): 36.5 dynes/cm | Surface tension (22.5 % w/w solvent in water): 35.5 dynes/cm | Surface tension (25 % w/w solvent in water): 34.7 dynes/cm | Surface tension (100 % w/w solvent): 28.6 dynes/cm
